Ab-14 light chain CDR variants: yeast mating affinities

Source: Li et al. 2023 (doi:10.1038/s41467-023-39022-2), MIT Lincoln Laboratory and A-Alpha Bio; data file from the FLAb repository.

The target is the same throughout: PDVDLGDISGINAS, from the HR2 region of SARS-CoV-2 spike.

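The starting antibody came from a phage panning campaign against this peptide. These sequences belong to a second round, designed from the earlier measurements on random variants of the parent. Their group label is 14L_GP_HC (GP: Gaussian process model; HC: hill climbing; a sequence that several methods proposed may carry one label only). The scFvs were displayed on barcoded MATa yeast, the peptide on MATalpha yeast. After mating in shaken culture at 30 °C for 16 h, diploids were selected and their barcode pairs sequenced. Read counts were normalised to the haploid input and turned into Kd by a linear fit to BCL2-family pairs of known affinity, for each replicate. Each pool was mated in six replicate cultures.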

Each scFv is VH, a 15-residue (Gly4Ser)3 linker, VL, as in the parent Ab-14, and differs from it in the CDRs of the light chain only.
VH: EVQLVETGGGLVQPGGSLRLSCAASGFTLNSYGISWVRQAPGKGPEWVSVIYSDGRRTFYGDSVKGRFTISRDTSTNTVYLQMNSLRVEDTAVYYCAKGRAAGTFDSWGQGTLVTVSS
VL: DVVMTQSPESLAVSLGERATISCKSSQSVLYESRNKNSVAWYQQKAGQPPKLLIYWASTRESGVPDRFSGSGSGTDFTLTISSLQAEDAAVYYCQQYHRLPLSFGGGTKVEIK

Each variant is given by its three light chain CDRs, as the data file delimits them; those of the parent are KSSQSVLYESRNKNSVA, WASTRES, QQYHRLPLS.
The read-out is the apparent dissociation constant on a log10 scale (nM): the lower, the stronger.
Replicates are averaged; those with no signal do not enter the mean.
"ND" marks a missing value. The strain was present, yet no cells mated with the target were sequenced in that replicate, which points to weak or no binding.
The range of this assay differs from that of the first round, and the authors advise against merging the two.
Three control strains display no target. For all light chain designs, 4% of the pairings with them gave a signal, with a median of 2.64 and one signal in twenty below 1.59, so weak values seen in few replicates may be background. The control count says in how many pairings with the empty strains this scFv gave a signal, with their mean in brackets.
The parent sequence was in this pool as ten entries: three were never detected, three once, and four in most replicates, with averages from 0.34 to 2.37.
The authors' rule: three or more of the six replicates give a measured affinity, fewer mean a poor binder.

CDR-L1,CDR-L2,CDR-L3,log10 Kd (nM) by replicate,"mean, log10 nM",control signals
KLEQSRNYESRNKNSVA,NASTRES,QQYHRLPLS,0.33 / 0.36 / -0.07 / 0.27 / 0.17 / 0.40,0.24,0/18
KVSQSVLYESRVKNSVA,DASTRCS,QQYHRLPLE,-0.20 / -0.53 / -0.23 / -0.40 / -0.37 / -0.10,-0.31,1/18 (2.50)
KLQQSEEYESRNKNSVA,HASTRES,QQYHRLPLS,-0.09 / -0.13 / -0.44 / -0.36 / -0.19 / 0.00,-0.20,0/18
KLSQSTLYESRNQNSVA,WASTRES,QQYHRLPLS,0.35 / 0.01 / 0.28 / -0.12 / 0.40 / 0.88,0.30,0/18
LSSISYLYESLNKNSVA,EASTRES,QQYHRLPLS,0.72 / 0.54 / 0.29 / 0.37 / 0.33 / 0.41,0.44,0/18
KSSISWLYESMNKNSVA,NGSTRES,QQYHRLPLS,0.42 / 0.03 / 0.06 / 0.15 / 0.39 / 0.24,0.22,0/18
KQSQSVLYESRNCNSVA,DASTRES,QQYVRLPLS,0.79 / 0.59 / 0.74 / 0.99 / 0.50 / 0.80,0.73,1/18 (1.91)
DSSQSELYESRNKNSVA,GASTRES,QQYHRLPLS,0.15 / -0.20 / -0.01 / 0.03 / 0.00 / -0.05,-0.02,0/18
KSSQSVMGEQRNKNSVA,DASTRES,QQYHRLPLS,-0.20 / -0.18 / -0.11 / -0.26 / -0.10 / -0.07,-0.15,0/18
KLEQSVNYESRNKNSVA,NASTRES,QQYHRLPLS,-0.28 / -0.36 / -0.49 / -0.54 / -0.40 / -0.08,-0.36,0/18
KQSQSVGYESRNKNSVA,MASTRES,QQYHRLPLS,ND / ND / ND / ND / 1.32 / ND,1.32,0/18
KLRQSTLYESRNKNEVA,EASTRES,QQYHRLPLS,0.52 / 0.99 / 3.59 / 0.49 / 1.00 / 0.23,1.14,0/18
HSSPSVLYESRNGNSVA,NASTREM,QQYHRLPLS,0.97 / 0.83 / 0.55 / 0.42 / 0.65 / 0.88,0.72,2/18 (2.73)
KESQSWPYESRNKNSVA,GASTRES,QQYHRLPLS,-0.04 / -0.11 / -0.02 / -0.24 / -0.03 / 0.12,-0.05,1/18 (3.47)
KSSCGVLYEGRNKNSVA,GASTRES,QQYHRLPLS,0.27 / 0.35 / 0.14 / 0.07 / 0.20 / 0.44,0.24,2/18 (2.89)
KSLWSVLYESNNKNSVA,GASTRED,QQYHRLPLS,0.51 / 0.53 / 0.37 / 0.44 / 0.49 / 0.50,0.47,1/18 (4.50)
KLEQSTLYESRNKNSVA,NASTRSS,QQYHRLPLS,0.01 / -0.01 / 0.12 / -0.38 / 0.25 / 0.01,0.00,0/18
NSSQSWLYESRNKNSVA,GASTRES,QQYHRLPLS,0.31 / 0.32 / 0.57 / 0.07 / 0.08 / 0.41,0.29,0/18
KVSPSYLYESRNKNSVA,QASTRES,QQYHRLPLS,-0.13 / -0.04 / -0.20 / -0.32 / -0.03 / 0.04,-0.11,1/18 (2.32)
KSSQSVDRESRNKNSVA,DASTRES,QQYHRLPLS,0.32 / 0.16 / 0.12 / -0.02 / 0.11 / 0.25,0.16,0/18
KQSWSVLQESRNKNSVA,DASTRES,QQYHRLPLS,-0.54 / -0.51 / -0.45 / -0.61 / -0.37 / -0.34,-0.47,0/18
KISQSWLYESRNKNSVA,GASSRES,QQYHRLPLS,-0.19 / -0.50 / -0.54 / -0.56 / -0.35 / -0.42,-0.43,1/18 (4.08)
KQSQSVLYEWRDKNSVA,DASTRES,QQYHRLPLS,1.09 / -0.06 / 0.23 / -0.09 / -0.06 / 0.12,0.20,1/18 (3.26)
KSDQGVLYQSRNKNSVA,GASTRES,QQYHRLPLS,-0.06 / 0.00 / 0.01 / 0.00 / 0.01 / 0.06,0.00,1/18 (2.48)
HQSGSVLYESRNSNSVA,NGSTREV,QQYHRLPLS,0.35 / -0.26 / 0.01 / 0.03 / 0.14 / -0.31,-0.01,0/18
KSSQSFLYESRNVNSVA,GASTRLS,QQYHRLPLS,1.12 / 0.59 / 0.48 / 0.98 / 1.15 / 0.58,0.82,0/18
KSSQSELTESRNKNSVA,DASTRES,QQYWRLPLS,-0.04 / -0.14 / -0.49 / -0.37 / -0.21 / 0.05,-0.20,1/18 (2.49)
KSSISVLYESRNKNSVA,EASTREQ,QQYHRLPLS,0.31 / 0.65 / 0.39 / 0.44 / 0.83 / 0.81,0.57,0/18
LSSGSYLYESPNKNSVA,EASTRES,QQYHRLPLS,1.11 / 0.56 / 0.58 / 0.38 / 0.71 / 0.99,0.72,1/18 (2.89)
KVSPSVLYESRNKNSVA,QASTRES,QQYHRLPLS,-0.16 / -0.39 / -0.54 / -0.67 / -0.38 / -0.28,-0.40,1/18 (4.07)
NMSQSWLYESRNKNSVA,GGNTRES,QQYHRLPLS,0.18 / 0.13 / 0.09 / -0.06 / 0.13 / 0.27,0.12,3/18 (2.84)
KQSQENLYESRNKNSVA,DASTRES,QQYHRLPLS,0.14 / 0.04 / 0.04 / -0.10 / -0.08 / 0.07,0.02,1/18 (2.46)
KLEQSVLYESRNKNSVA,HASTRED,QQYHRLPLS,0.18 / 0.19 / 0.14 / -0.25 / -0.20 / 0.08,0.02,1/18 (2.01)
KSSMSGLYESRMKNSVA,EASTRES,QQYHRLPLS,-0.23 / 0.11 / -0.17 / -0.42 / -0.36 / -0.41,-0.25,0/18
KISISYLGEKRNKNSVA,EASTRMS,QQYHRLPLS,0.47 / 0.38 / 0.43 / 0.37 / 0.47 / 0.58,0.45,0/18
KQSQEVLYSSRNKNSVA,DASTRES,QQYHRLPLS,-0.13 / -0.21 / -0.39 / -0.34 / -0.28 / -0.06,-0.24,1/18 (1.87)
KSSQSVLNESRNSNSVA,DASTRES,QQYHRLPLS,0.97 / 0.42 / 0.25 / 0.52 / 0.34 / 0.73,0.54,1/18 (3.25)
KSSISVLYESENKNSVA,EASQRES,QQYHRLPLS,1.05 / 1.68 / 1.20 / 1.63 / 1.48 / 1.78,1.47,1/18 (2.34)
KSSQSWLYESRNKNSVA,GASTRED,QQYHRLPLS,-0.15 / -0.34 / -0.33 / -0.43 / -0.39 / -0.17,-0.30,0/18
NSSQSDLYESRNKNSVA,GGNTRES,QQYHRLPLS,0.63 / 0.18 / 0.28 / 0.22 / 0.40 / 0.53,0.37,1/18 (3.33)
KSGQSVLYESRNKNSVA,GASQRES,QQYHRLPLS,0.43 / 0.31 / 0.18 / -0.29 / 0.06 / 0.08,0.13,0/18
KFSQSVLYESRTKNSVA,NAVTRES,QQYHRLPLS,0.37 / 0.04 / 0.11 / 0.06 / 0.19 / 0.32,0.18,0/18
KSSQSFLYESRNFNSVA,NASTRES,QQYHRLPLS,0.67 / 0.72 / 0.58 / 0.53 / 0.95 / 1.00,0.74,3/18 (3.48)
KLDQSVLYESRDKNSVA,HASTRED,QQYHRLPLS,0.01 / -0.19 / -0.34 / -0.03 / -0.16 / 0.09,-0.10,1/18 (3.07)
KLPFSTLYESRQKNSVA,NASTRES,QQYHRLPLS,0.32 / 0.31 / 0.25 / 0.07 / 0.26 / 0.60,0.30,0/18
KFLQSVLYESRNKNSVA,HASTRED,QQYGRLPLS,0.65 / 0.35 / 0.08 / 0.16 / 0.27 / 0.44,0.32,2/18 (2.68)

The last 5 entries again:

CDR-L1,CDR-L2,CDR-L3,log10 Kd (nM) by replicate,"mean, log10 nM",control signals
KFSQSVLYESRTKNSVA,NAVTRES,QQYHRLPLS,0.37 / 0.04 / 0.11 / 0.06 / 0.19 / 0.32,0.18,0/18
KSSQSFLYESRNFNSVA,NASTRES,QQYHRLPLS,0.67 / 0.72 / 0.58 / 0.53 / 0.95 / 1.00,0.74,3/18 (3.48)
KLDQSVLYESRDKNSVA,HASTRED,QQYHRLPLS,0.01 / -0.19 / -0.34 / -0.03 / -0.16 / 0.09,-0.10,1/18 (3.07)
KLPFSTLYESRQKNSVA,NASTRES,QQYHRLPLS,0.32 / 0.31 / 0.25 / 0.07 / 0.26 / 0.60,0.30,0/18
KFLQSVLYESRNKNSVA,HASTRED,QQYGRLPLS,0.65 / 0.35 / 0.08 / 0.16 / 0.27 / 0.44,0.32,2/18 (2.68)